According to article PMC6397219, “Rapid one-step ^18F-radiolabeling of biomolecules in aqueous media by organophosphine fluoride acceptors” (Nature Communications, 2019):

Test: Biodistribution of 18F-DBPOF-HSA in rats
Assay type: in vivo, rat

Which SUV in blood (0.5 h) does the source give for “18F-DBPOF-HSA: 18F-labeled human serum albumin for blood pool imaging” here?
The SUV in blood was 1.4 ± 0.7.

And the SUV in blood (1 h)?
Its SUV in blood is 1.0 ± 0.1.
